Laboratory results from publication doi:10.1101/2025.09.23.677902.

Sequences of proteins named here, by UniProt entry; tags and fusion partners are left off. A change or cut given only in a name is not applied to a line headed by its entry.
UniProt P49591: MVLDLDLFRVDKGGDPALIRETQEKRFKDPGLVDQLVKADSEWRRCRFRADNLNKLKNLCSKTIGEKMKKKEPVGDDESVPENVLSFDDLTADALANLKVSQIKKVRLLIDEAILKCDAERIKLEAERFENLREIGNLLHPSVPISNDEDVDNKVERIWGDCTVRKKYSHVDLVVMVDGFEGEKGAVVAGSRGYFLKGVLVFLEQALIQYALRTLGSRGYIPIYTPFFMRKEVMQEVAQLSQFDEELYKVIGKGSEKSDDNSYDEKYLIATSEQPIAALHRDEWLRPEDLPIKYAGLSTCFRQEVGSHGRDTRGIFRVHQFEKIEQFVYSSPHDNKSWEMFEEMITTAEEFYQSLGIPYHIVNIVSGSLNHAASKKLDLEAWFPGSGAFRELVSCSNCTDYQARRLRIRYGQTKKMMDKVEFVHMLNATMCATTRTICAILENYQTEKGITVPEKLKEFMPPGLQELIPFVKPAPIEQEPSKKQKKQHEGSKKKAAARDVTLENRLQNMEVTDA

Target: human cytosolic seryl-tRNA synthetase (SerRS), tag-free recombinant (human) (UniProt P49591)
Test: SEC

For “human cytosolic seryl-tRNA synthetase (SerRS), tag-free recombinant (from UniProt P49591) (enzyme; other documents disagree on this pair)”, the stoichiometry N was 2.
